Test results reported in US20090099157A1, “TETRAHYDRO-PYRAZOLO-PYRIDINE THIOETHER MODULATORS OF CATHEPSIN S” (priority 2007, published 2009).

Protein sequences, listed by entry. Tags and fused reporters are not part of them. Residues count along the entry.
UniProt P25774, 115-331: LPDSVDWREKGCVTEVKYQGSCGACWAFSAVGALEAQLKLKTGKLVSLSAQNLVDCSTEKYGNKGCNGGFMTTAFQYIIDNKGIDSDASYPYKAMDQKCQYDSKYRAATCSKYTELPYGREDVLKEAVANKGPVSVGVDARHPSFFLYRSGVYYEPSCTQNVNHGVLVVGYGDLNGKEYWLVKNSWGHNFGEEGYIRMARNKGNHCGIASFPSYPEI

How the values were obtained:
[1] = biological target: T1, Recombinant human cathepsin S (CatS) (Homo sapiens, UniProt P25774); details: read-out: CatS IC50; Table 4; average of results obtained; 10 μM substrate, pH 5.0
[2] = biological target: T1, Recombinant human cathepsin S (CatS); assay: biochemical

Compound | IC50 [2] [µM] | IC50 [1] [µM]
2-[4-(3-{3-[3-{[2-(3,3-Difluoropyrrolidin-1-yl)ethyl]sulfanyl}-4-(trifluoromethyl)phenyl]-4,5,6,7-tetrahydro-1H-pyrazolo[4,3-c]pyridin-1-yl}-2-hydroxypropyl)piperazin-1-yl]pyridine-3-carbonitrile [Example 510] |  | 0.32
(4R)-1-{1-[(2S)-3-(5-Acetyl-3-{3-[(2-pyrrolidin-1-ylethyl)sulfanyl]-4-(trifluoromethyl)phenyl}-4,5,6,7-tetrahydro-1H-pyrazolo[4,3-c]pyridin-1-yl)-2-hydroxypropyl]piperidin-4-yl}-4-hydroxypyrrolidin-2-one [Example 364] |  | 0.26
1-[5-(Methylsulfonyl)-3-{3-[(2-morpholin-4-ylethyl)sulfanyl]-4-(trifluoromethyl)phenyl}-4,5,6,7-tetrahydro-1H-pyrazolo[4,3-c]pyridin-1-yl]-3-[4-(1H-pyrrolo[2,3-b]pyridin-3-yl)piperidin-1-yl]propan-2-ol [Example 801] |  | 0.07
CC(C)(C)C1CCN(C[C@H](O)Cn2nc(-c3ccc(C(F)(F)F)c(SCCN4CCC(F)CC4)c3)c3c2CCN(S(C)(=O)=O)C3)CC1 [Example 205, (2S)-1-[4-(1,1-Dimethylethyl)piperidin-1-yl]-3-{3-[3-{[2-(4-fluoropiperidin-1-yl)ethyl]sulfanyl}-4-(trifluoromethyl)phenyl]-5-(methylsulfonyl)-4,5,6,7-tetrahydro-1H-pyrazolo[4,3-c]pyridin-1-yl}propan-2-ol] | 0.03 | 
CS(=O)(=O)N1CCc2c(c(-c3ccc(C(F)(F)F)c(SCC(=O)N4CCC[C@H]4C(F)(F)F)c3)nn2CCCN2CCC(N3CCCC3=O)CC2)C1 [Example 83, (S)-1-{1-[3-(5-Methanesulfonyl-3-{3-[2-oxo-2-(2-trifluoromethyl-pyrrolidin-1-yl)-ethylsulfanyl]-4-trifluoromethyl-phenyl}-4,5,6,7-tetrahydro-pyrazolo[4,3-c]pyridin-1-yl)-propyl]-piperidin-4-yl}-pyrrolidin-2-one] | 0.28 | 
CS(=O)(=O)N1CCc2c(c(-c3ccc(C(F)(F)F)c(SCCN4CCC(F)CC4)c3)nn2C[C@@H](O)CN2CCC3CCCCC3C2)C1 (stereo partly drawn) [Example 201, (2S)-1-{3-[3-{[2-(4-Fluoropiperidin-1-yl)ethyl]sulfanyl}-4-(trifluoromethyl)phenyl]-5-(methylsulfonyl)-4,5,6,7-tetrahydro-1H-pyrazolo[4,3-c]pyridin-1-yl}-3-(octahydroisoquinolin-2(1H)-yl)propan-2-ol] | 0.21 | 

The next lines start with results.

IC50 [2] [µM] | Compound | IC50 [1] [µM]
0.095 | CS(=O)(=O)N1CCc2c(c(-c3ccc(C(F)(F)F)c(SCCN4CCOCC4)c3)nn2CC(O)CN2CCC(C#N)(c3ccccc3)CC2)C1 (centres unmarked) [Example 765, 1-{2-Hydroxy-3-[5-(methylsulfonyl)-3-{3-[(2-morpholin-4-ylethyl)sulfanyl]-4-(trifluoromethyl)phenyl}-4,5,6,7-tetrahydro-1H-pyrazolo[4,3-c]pyridin-1-yl]propyl}-4-phenylpiperidine-4-carbonitrile] | 
0.58 | O=C1CCCN1C1CCN(CC(O)Cn2nc(-c3ccc(C(F)(F)F)c(SCCN4CCC(F)(F)C4)c3)c3c2CCNC3)CC1 (centres unmarked) [Example 439, 1-[1-(3-{3-[3-{[2-(3,3-Difluoropyrrolidin-1-yl)ethyl]sulfanyl}-4-(trifluoromethyl)phenyl]-4,5,6,7-tetrahydro-1H-pyrazolo[4,3-c]pyridin-1-yl}-2-hydroxypropyl)piperidin-4-yl]pyrrolidin-2-one] | 
0.16 | CC(=O)NC1CCN(C[C@H](O)Cn2nc(-c3ccc(C(F)(F)F)c(SCCN4CCCC4)c3)c3c2CCN(C(C)=O)C3)CC1 [Example 363, N-{1-[(2S)-3-(5-Acetyl-3-{3-[(2-pyrrolidin-1-ylethyl)sulfanyl]-4-(trifluoromethyl)phenyl}-4,5,6,7-tetrahydro-1H-pyrazolo[4,3-c]pyridin-1-yl)-2-hydroxypropyl]piperidin-4-yl}acetamide] | 
0.37 | CS(=O)(=O)N1CCc2c(c(-c3ccc(C(F)(F)F)c(SCCN4CCCC(CO)C4)c3)nn2CC(O)CN2CCC(C(=O)N3CCOCC3)CC2)C1 (centres unmarked) [Example 863, 1-{3-[3-({2-[3-(Hydroxymethyl)piperidin-1-yl]ethyl}sulfanyl)-4-(trifluoromethyl)phenyl]-5-(methylsulfonyl)-4,5,6,7-tetrahydro-1H-pyrazolo[4,3-c]pyridin-1-yl}-3-[4-(morpholin-4-ylcarbonyl)piperidin-1-yl]propan-2-ol] | 
0.37 | CS(=O)(=O)N1CCc2c(c(-c3ccc(C(F)(F)F)c(SCCNC4CCCC4)c3)nn2CC(O)CN2CCCCC2)C1 (centres unmarked) [Example 346, 1-{3-[3-{[2-(Cyclopentylamino)ethyl]sulfanyl}-4-(trifluoromethyl)phenyl]-5-(methylsulfonyl)-4,5,6,7-tetrahydro-1H-pyrazolo[4,3-c]pyridin-1-yl}-3-piperidin-1-ylpropan-2-ol] | 

Like-named read-outs stand apart in the source and are kept apart here.
